Test: Ability to induce shape change (polarization) in human polymorphonuclear leukocytes (PMN)

CC[C@H](C)[C@H](N)C(=O)N[C@@H](CO)C(=O)N[C@@H](Cc1ccccc1)C(=O)N[C@@H](CCCCN)C(=O)N[C@@H](CC(=O)O)C(=O)N[C@@H](CCSC)C(=O)N[C@@H](CCC(N)=O)C(=O)N[C@@H](CC(C)C)C(=O)NCC(=O)N[C@@H](CCCNC(=N)N)C(=O)O
EC50: 900 nM
